Assay results reported in publication PMC7400623, “Effect of lysine side chain length on histone lysine acetyltransferase catalysis” (Scientific Reports, 2020).

Protein sequences, listed by entry. Tags and fused reporters are not part of them. Residues count along the entry.
UniProt Q9H7Z6, 125-458: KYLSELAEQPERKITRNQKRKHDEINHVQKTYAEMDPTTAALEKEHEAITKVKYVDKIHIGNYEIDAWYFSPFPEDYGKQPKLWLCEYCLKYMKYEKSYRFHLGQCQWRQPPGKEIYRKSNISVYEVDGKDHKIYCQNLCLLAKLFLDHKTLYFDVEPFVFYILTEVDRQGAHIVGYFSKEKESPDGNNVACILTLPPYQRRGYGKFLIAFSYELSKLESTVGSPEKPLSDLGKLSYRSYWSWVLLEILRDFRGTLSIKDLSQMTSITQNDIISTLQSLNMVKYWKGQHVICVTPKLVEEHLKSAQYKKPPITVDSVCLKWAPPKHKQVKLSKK

These substances were tested against Human MOF catalytic domain (residues 125-458) (human) (UniProt Q9H7Z6).
“H4K*16 histone peptide containing Orn at position 16 (H4 residues 13-27)” was tested, and the IC50 of inhibition of MOF-catalyzed acetylation of the H4K16 peptide (single point, 100 µM of each peptide, 1 h, 37 °C, MALDI-TOF MS; residual activity greater than 50%) was over 100 µM. Work on “H4K*16 histone peptide containing Dab at position 16 (H4 residues 13-27)” yielded an IC50 of inhibition of MOF-catalyzed acetylation of the H4K16 peptide (single point, 100 µM of each peptide, 1 h, 37 °C, MALDI-TOF MS; residual activity greater than 50%) of over 100 µM. “H4K*16 histone peptide containing h4K at position 16 (H4 residues 13-27)” gave an IC50 of inhibition of MOF-catalyzed acetylation of the H4K16 peptide (single point, 100 µM of each peptide, 1 h, 37 °C, MALDI-TOF MS; residual activity greater than 50%) of over 100 µM.

Target: Human MOF catalytic domain (residues 125-458) (human) (UniProt Q9H7Z6)
Remark: another data set of the same source
For “H4K16 histone peptide (H4 residues 13-27)”, the Km^app of MOF-catalyzed acetylation (MALDI-TOF MS kinetics, steady state, saturating AcCoA, 37 °C, pH 7.4) was 593 μM. “H4hK16 histone peptide (H4 residues 13-27 with hLys at position 16)” was tested, and the Km^app of MOF-catalyzed acetylation (MALDI-TOF MS kinetics, steady state, saturating AcCoA, 37 °C, pH 7.4) was 344 μM. Substance “H4h2K16 histone peptide (H4 residues 13-27 with h2K at position 16)” has a Km^app of MOF-catalyzed acetylation (MALDI-TOF MS kinetics, steady state, saturating AcCoA, 37 °C, pH 7.4) of 82.2 μM.
